For one compound, Ratio IC50 and Activity results are on record in ChEMBL document CHEMBL4433220, “Identification of the 2-Benzoxazol-2-yl-phenol Scaffold as New Hit for JMJD3 Inhibition” (ACS Med Chem Lett, 2019).

For one assay, the species on record is Homo sapiens. The assay is described as follows: Selectivity ratio of IC50 for recombinant human JMJD3 to IC50 for UTX (unknown origin).
For another assay, the system named is A-375. The assay is described as follows: Antiproliferative activity against human A375 cells incubated for 24 hrs by propidium iodide staining based flow cytometric analysis. It is filed as functional, cell-based.

As to `Oc1ccc(O)c(-c2nc3ccccc3o2)c1`, in the assay listed under Homo sapiens, the Ratio IC50 turned out to be 21. The Activity entry in the assay on A-375 is “Dose-dependent effect”.
